{
  "source": "patent US10646532B2",
  "about": "“Method for preparing water extract of ashwagandha leaves which has enhanced anti-cancer activity utilizing cyclodextrin, and pharmaceutical composition containing ashwagandha leaves” (National Institute of Advanced Industrial Science and …, priority 2014, dated 2020)",
  "origin": "cited, not measured here",
  "test_system": "cancer cells / normal cells",
  "details": "in vitro test, background art",
  "data": [
    {"smiles": "CC1=C(CO)C(=O)O[C@@H](C(C)[C@H]2CCC3[C@@H]4C[C@H]5O[C@]56[C@@H](O)C=CC(=O)[C@]6(C)C4CC[C@@]32C)C1", "note": "(stereo partly shown) [withaferin A]", "values": [
      {"measurement": "cytotoxicity to cancer cells versus normal cells", "value": "has effects even on normal cells"}
    ]}
  ]
}
